From BindingDB's records for 20149667

Amino acid sequences for entries named in this document (tags omitted). Residues count along the entry.
UniProt O42275, 24-633 limits assumed: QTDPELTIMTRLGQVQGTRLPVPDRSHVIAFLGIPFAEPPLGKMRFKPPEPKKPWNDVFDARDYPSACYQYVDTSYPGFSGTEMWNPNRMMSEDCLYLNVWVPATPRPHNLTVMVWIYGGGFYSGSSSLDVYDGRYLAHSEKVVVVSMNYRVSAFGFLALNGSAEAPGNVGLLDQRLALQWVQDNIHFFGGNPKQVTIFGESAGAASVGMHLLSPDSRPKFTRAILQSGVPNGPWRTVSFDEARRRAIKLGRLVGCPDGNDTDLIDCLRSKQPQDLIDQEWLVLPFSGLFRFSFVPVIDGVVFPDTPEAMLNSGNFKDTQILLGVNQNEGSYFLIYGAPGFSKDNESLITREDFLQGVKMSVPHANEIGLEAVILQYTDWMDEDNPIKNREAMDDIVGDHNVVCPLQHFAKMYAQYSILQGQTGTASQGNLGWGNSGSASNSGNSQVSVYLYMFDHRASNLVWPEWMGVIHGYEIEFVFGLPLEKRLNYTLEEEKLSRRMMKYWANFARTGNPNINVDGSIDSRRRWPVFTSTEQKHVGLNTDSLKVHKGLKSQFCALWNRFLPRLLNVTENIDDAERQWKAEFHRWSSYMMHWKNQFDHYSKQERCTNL

Target: Acetylcholinesterase (Electrophorus electricus, UniProt O42275)
Assay: Inhibition of electric eel AChE by modified Ellman's method

O=NCC1CCN(CCCc2ccccc2)CC1
IC50: 278 µM
